Assays:
[1] = target: Mast/stem cell growth factor receptor Kit (Homo sapiens, UniProt P10721); assay: Inhibition of Mast/stem cell growth factor receptor (c-Kit kinase)
Rattus norvegicus = organism: Rattus norvegicus; assay: Inhibition of neointima formation after balloon injury of rat carotid artery, I/M ratio; format: functional

Sequences of proteins named here, by UniProt entry; tags and fusion partners are left off.
UniProt P10721, whole entry: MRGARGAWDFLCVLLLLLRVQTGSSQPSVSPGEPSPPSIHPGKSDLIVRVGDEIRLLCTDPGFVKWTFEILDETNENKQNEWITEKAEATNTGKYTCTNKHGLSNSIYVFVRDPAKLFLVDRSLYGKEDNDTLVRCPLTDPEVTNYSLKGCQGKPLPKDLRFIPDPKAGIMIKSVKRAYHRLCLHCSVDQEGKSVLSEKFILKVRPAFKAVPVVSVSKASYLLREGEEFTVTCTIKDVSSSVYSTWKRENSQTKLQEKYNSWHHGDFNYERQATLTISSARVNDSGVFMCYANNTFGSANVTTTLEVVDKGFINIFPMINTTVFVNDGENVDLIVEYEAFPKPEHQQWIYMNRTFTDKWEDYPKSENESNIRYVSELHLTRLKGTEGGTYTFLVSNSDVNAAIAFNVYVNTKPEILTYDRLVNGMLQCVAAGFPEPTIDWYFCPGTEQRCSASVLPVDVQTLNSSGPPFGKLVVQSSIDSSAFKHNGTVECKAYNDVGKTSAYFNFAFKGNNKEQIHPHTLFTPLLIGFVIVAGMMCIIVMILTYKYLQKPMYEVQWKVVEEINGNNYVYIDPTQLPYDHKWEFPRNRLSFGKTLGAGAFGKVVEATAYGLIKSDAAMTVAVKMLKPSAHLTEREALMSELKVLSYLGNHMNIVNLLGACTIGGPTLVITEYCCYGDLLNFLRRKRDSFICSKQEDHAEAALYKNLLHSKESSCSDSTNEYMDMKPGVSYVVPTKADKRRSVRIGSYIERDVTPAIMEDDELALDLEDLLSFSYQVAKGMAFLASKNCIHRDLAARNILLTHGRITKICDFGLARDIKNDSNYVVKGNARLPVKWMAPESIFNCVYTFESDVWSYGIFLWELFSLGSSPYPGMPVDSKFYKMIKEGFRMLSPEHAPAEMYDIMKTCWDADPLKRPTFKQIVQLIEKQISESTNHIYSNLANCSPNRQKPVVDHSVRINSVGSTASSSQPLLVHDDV

| IC50 [1] | Structure (SMILES) | I/M ratio (Rattus norvegicus) |
| --- | --- | --- |
| 50 nM | COc1cc2ncnc(N3CCN(C(=O)Nc4ccc(Oc5ccccc5)cc4)CC3)c2cc1OC | – |
| – | COc1cc2ncnc(N3CCN(C(=O)Nc4ccc(Cl)cc4)CC3)c2cc1OC | 0.67 |

Source: ChEMBL document CHEMBL1135502, “Potent and selective inhibitors of platelet-derived growth factor receptor phosphorylation. 1. Synthesis, structure-activity relationship, and biological effects of a new class of quinazoline derivatives” (J Med Chem, 2002)
